# Measurements taken from PubChem BioAssay AID900 (National Center for Advancing Translational Sciences (NCATS), 2007).
# The list shows a part of the results, in another mix than the full data. Some of these compounds have results that are not shown, active ones among them. The source made the active and inactive calls. Calls come from the whole dose curve; as a rule, active = well fitted inhibition curve with a large enough effect; inconclusive = small, poorly fitted or top-dose-only effect; inactive = flat fitted curve, though single readings scatter.
# Biological target: Caspase-1 (Homo sapiens) (UniProt P29466)
# Test: qHTS Assay for Allosteric/Competitive Inhibitors of Caspase-1
# Settings: Caspase-1 enzyme, Ac-WEHD-AFC fluorogenic rate; at 11.5 µM (top of the series) unless noted
# Description: NIH Molecular Libraries Screening Centers Network [MLSCN]
# NIH Chemical Genomics Center [NCGC]
# PI Name: Dr. James Wells,
# Dr. Enrique Perez-Paya, Dr.Janice Williams, Dr. Dennis Wolan, a person
# The caspases (Cysteine Aspartyl Protease) comprise a related family of 14 dimeric proteases that are critical mediators of apoptosis (programmed cell death) and inflammation. The caspases represent an important class of drug targets for stroke, ischemia, cancer and inflammatory diseases. […] One goal of this project was to identify compounds that act as allosteric inhibitors via stabilizing the procaspase form of the enzyme. Previous work in Well's laboratory has shown that such allosteric inhibitors can be identified and these act by binding at the dimer interface of enzyme (Hardy, Lam et al., 2004).
# The biochemical assay was configured using purified caspase 1 at a high enzyme concentration to promote formation of the homodimers and thus facilitate the identification of allosteric inhibitors. The overall goal was to identify reversible inhibitors with better drug-like properties than the currently available set of aspartyl-containing peptidomimetics that covalently bind the active site. Caspase 1 was assayed using the profluorescent substrate Ac-WEHD-AFC. After initiation of the assay with substrate the plates were rapidly read using an automated robotic system (Kalypsys, Inc.) to maintain consistent timing. A kinetic mode of detection was used where the initial rate was collected (estimated final product formation was ~10%). Compounds were screened as a concentration-titration series that ranged from 57 uM to 0.7 nM. Below is the protocol used for caspase 1.
# NCGC Assay Protocol Summary:
# Caspase 1 was prepared in buffer (50 mM HEPES pH 7.5, 50 mM KCl, 200 mM NaCl, 10 mM DTT, 0.1% CHAPS) at a concentration of 66.6 nM and 3 uL was dispensed to all wells using black solid Kalypsys 1536-well plates. 20 nL of DMSO containing compounds was added using a pin-tool (Kalypsys Inc.) to columns 5-48. Then 20 nL of DMSO solution from a control plate was added to columns 1-4. Controls were: Column 1, 16 point titration with each concentration in duplicate (1:1 dilutions in DMSO; final starting concentration was 57 uM) of the caspase 1 inhibitor Ac-WEHD-CHO (Alexis Biochemicals); Column 2, a 16 point titration with each concentration in duplicate of the free AFC fluorophore prepared in DMSO (Alexis Biochemicals), final starting was 40 uM; Column 3 neutral (DMSO only) control; Column 4: DMSO alone, to serve as a negative control (no substrate was added). Then 1 uL of 20 uM the substrate Ac-WEHD-AFC (Alexis Biochemicals) prepared in the same buffer was dispensed to all wells except columns 2 and 4 and the plates were immediately transferred (< 1 min) to the Viewlux. The plates were then exposed using 405 nm excitation/520 nm emission filters for 4 sec and read at 20 sec intervals for 3 min. […]
# Concentration-response curves were fitted to the data calculated from slope of the linear regression of fluorescent intensity versus time (the rate). The concentration-effect curves were then classified based on curve quality (r2), response magnitude and degree of measured activity. […] Inconclusive compounds had appreciable concentration-dependent effects on both the measured rate and the interpolated basal fluorescence intensity at the start of the reaction but where the basal fluorescent intensity was marginal (e.g. < 10-fold). […]
row,SMILES,"activity change, negative = inhibition"
1,CN(C)c1cccc(C(=O)NCC2(N(C)C)CCCCC2)c1,inactive: -7.06% [at 57.5 µM]
2,CN1CCC[C@H](OC(=O)[C@](O)(c2ccccc2)C2CCCC2)C1,inactive: 0.941%
3,O=C(OC1CN2CCC1CC2)C(CO)(c1ccccc1)c1ccccc1 (stereo not given),inactive: 0.214% [at 57.5 µM]
4,CN1CC[C@H](OC(=O)[C@](O)(c2ccccc2)C2CCCC2)C1,inactive: -1%
5,C=C(C)C#C[C@@](O)(C(=O)OC1CCN(C)CC1)c1ccccc1,inactive: -1.51%
